Test results reported in PubChem BioAssay AID588478 (ICCB-Longwood Screening Facility, Harvard Medical School, 2011).
The list shows a part of the results, in another mix than the full data. Calls of active or inactive are those of the source.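 Rule for the calls: active = mean inhibition over replicate wells above about 20% (limit read from the data); inactive = the rest.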

The chains behind the UniProt entries cited, without tags or fusion partners.
UniProt Q9Y5K5, whole entry: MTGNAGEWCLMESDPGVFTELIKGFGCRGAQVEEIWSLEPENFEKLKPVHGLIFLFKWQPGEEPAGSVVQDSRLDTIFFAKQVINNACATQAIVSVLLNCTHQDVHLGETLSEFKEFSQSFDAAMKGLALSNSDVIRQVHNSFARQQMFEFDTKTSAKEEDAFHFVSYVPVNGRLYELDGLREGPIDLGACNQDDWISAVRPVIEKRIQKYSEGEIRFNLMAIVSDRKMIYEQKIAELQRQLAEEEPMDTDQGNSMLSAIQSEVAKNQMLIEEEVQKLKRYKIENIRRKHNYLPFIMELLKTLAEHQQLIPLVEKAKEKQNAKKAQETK

molecular target: Ubiquitin carboxyl-terminal hydrolase isozyme L5 (Homo sapiens) (UniProt Q9Y5K5); assay: inhibitors of human UCH37 deubiquitinase, primary screen, biochemical, Ub-AMC cleavage, fluorescence (AID 588478); settings: purified proteasome/UCH37, Ub-AMC cleavage fluorescence; hits give high values; concentration not given here;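 note: 0% = compound-free wells with enzyme and 100% = wells lacking proteasome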
In short: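 Assay system: Proteasome-bound UCH37. Buffer or medium: pH 7.4 Tris-HCl (50 mM) with ovalbumin, ATP-MgCl2, DTT. Incubation: 30 min preincubation with enzyme, 25 min cleavage at room temperature. Measured by: fluorescence, ex 355 nm, em 460 nm. Read-out basis: percent inhibition. Control set: wells without proteasome as full block, compound-free enzyme plus substrate as uninhibited.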

SMILES	inhibition
Cc1cccc(OCC(=O)OC2CN3CCC2CC3)c1 (stereo not given)	inactive: -0.706%
Cc1cc(C)cc(OP(C)(=O)Nc2ccc(C)cc2C)c1 (stereo not given)	inactive: 0.46%
CCOC(=O)c1ccc(NP(C)(=O)Oc2cc(C)cc(C)c2)cc1 (stereo not given)	inactive: 0.845%
O=C(OC1CN2CCC1CC2)c1ccc(Cl)cc1 (stereo not given)	inactive: 4.46%
COc1cc(C(=O)NCC2(N3CCOCC3)CCCCC2)cc(Cl)c1OC(C)C	inactive: 0.756%
O=[As](O)(O)c1cccnc1	inactive: 2.35%
COc1ccccc1OP(C)(=O)Nc1cccc(Br)c1 (stereo not given)	inactive: 3.91%
CS(=O)(=O)c1ccc(Cl)c(NC(=O)COC(=O)C(O)(c2ccccc2)c2ccccc2)c1	inactive: 3.46%
N#CCCN(C(=O)COC(=O)C(O)(c1ccccc1)c1ccccc1)c1ccc(F)cc1	inactive: -0.36%
Cc1ccc(NC(=NP(=O)(N2CCOCC2)N2CCOCC2)N2CCOCC2)cc1	inactive: 1.05%
CN(C(=O)Cc1ccccc1)[C@@H]1CC[C@]2(CCCO2)C[C@H]1N1CCCC1	inactive: 0.418%
CCOP1(=S)c2c(C)nn(CCC#N)c2N=C(c2ccc(F)cc2)N1C (stereo not given)	inactive: 2.37%
CN(C)C(=O)c1cc([N+](=O)[O-])cc2c1-c1c(cc([N+](=O)[O-])cc1[N+](=O)[O-])C2=O	inactive: 13.8%
O=[N+]([O-])c1ccc2c(c1)nnn2O	inactive: 4.98%
CN(C(=O)Cc1ccc(Cl)c(Cl)c1)[C@H]1CC[C@@]2(CCCO2)C[C@@H]1N1CCCC1	inactive: 2.2%
CC1=NCCc2c1[nH]c1ccccc21.O=[N+]([O-])c1cc([N+](=O)[O-])c(O)c([N+](=O)[O-])c1	inactive: -17%
NC(=O)Nc1ccc([As](=O)(O)O)cc1	inactive: 1.57%
O=C(O)COc1ccc([As](=O)(O)O)cc1[N+](=O)[O-]	inactive: 4.16%
Nc1ccccc1[As](=O)(O)c1ccccc1	inactive: 3.2%
O=C(O)c1cccc(Nc2c([N+](=O)[O-])cc([N+](=O)[O-])cc2[N+](=O)[O-])c1	inactive: 17.3%
CCOP1(=S)c2c(C)nn(CCC#N)c2N=C(c2ccccc2F)N1C (stereo not given)	inactive: 4.88%
O=P(Nc1nccs1)(c1ccccc1)c1nc2ccccc2s1 (stereo not given)	inactive: 0.7%
O=P(Nc1nccs1)(Oc1ccccc1)Oc1ccccc1	inactive: 3.59%
CP(=O)(Nc1ccc(SC(F)(F)F)cc1)Oc1ccccc1 (stereo not given)	inactive: 5.45%
Nc1cccc([As](=O)(O)c2ccccc2)c1	inactive: -1.29%
CCCOc1ccc(NP(C)(=O)Oc2ccc(Cl)cc2)cc1 (stereo not given)	inactive: 2.9%
NS(=O)(=O)c1cccc(NC(=O)COC(=O)C(O)(c2ccccc2)c2ccccc2)c1	inactive: 1.27%
O=P1(Nc2ccc(Br)cn2)COc2ccccc2OC1	inactive: -2.41%

SMILES	inhibition
Cc1ccc(OCC(=O)OC2CN3CCC2CC3)cc1 (stereo not given)	inactive: 4.88%
O=[As](O)(c1cccs1)c1cccs1	inactive: -2.78%
O=P1(Nc2ncccn2)COc2ccccc2OC1	inactive: 0.541%
CN1CCCCC1COC(=O)C1(O)c2ccccc2CCc2ccccc21 (stereo not given)	inactive: 3.59%
COc1ccccc1OP(C)(=O)Nc1c(C)cccc1C (stereo not given)	inactive: 4.54%
O=[N+]([O-])c1cc([N+](=O)[O-])c(Nc2nnnn2CCO)c([N+](=O)[O-])c1	inactive: 18.3%
CC1=C2N=C(C=C3N=C(C(C)=C4[N-][C@@](C)([C@@H]5N=C1[C@](C)(CCC(=O)NC[C@@H](C)OP(=O)([O-])O[C@H]1[C@@H](O)[C@@H](n6cnc7cc(C)c(C)cc76)O[C@@H]1CO)[C@H]5CC(N)=O)[C@@](C)(CC(N)=O)[C@@H]4CCC(N)=O)[C@@](C)(CC(N)=O)[C@@H]3CCC(N)=O)C(C)(C)[C@@H]2CCC(N)=O.[C-]#N.[Co+3]	active: 48.4%
CN(C)C1(CNC(=O)c2ccc(S(C)(=O)=O)cc2)CCCCC1	inactive: -0.344%
CCOC(=O)C(CC)C1=NC(C)(C)Cc2ccccc21.O=[N+]([O-])c1cc([N+](=O)[O-])c(O)c([N+](=O)[O-])c1 (stereo not given)	inactive: 15.7%
O=C(/C=C/c1ccccc1)OC1CN2CCC1CC2 (stereo not given)	inactive: 3.43%
CCCC1OP(=O)(Nc2ccccc2)OCC1CC (stereo not given)	inactive: 2.63%
Cc1nn(-c2ccccc2)c2c1P(=O)(N1CCOCC1)N(C)C(c1ccccc1)=N2 (stereo not given)	inactive: 0.222%
Cc1ccc(C(=O)OC2CN3CCC2CC3)cc1 (stereo not given)	inactive: 5.66%
CC1CCC(C(C)C)C(OP(=O)(Nc2ccccn2)c2ccccc2)C1 (stereo not given)	inactive: 0.337%
COc1cc(C2NCCC3(OCCO3)C2(C)C)cc(OC)c1OC.O=[N+]([O-])c1cc([N+](=O)[O-])c(O)c([N+](=O)[O-])c1 (stereo not given)	inactive: 3.8%
CN(C(=O)Cc1ccc(Cl)c(Cl)c1)[C@@H]1CCCC[C@H]1N1CCCC1	inactive: 4.22%
O=[As](O)(c1ccccc1Br)c1ccccc1Br	inactive: 0.613%
CC1(CBr)Cn2c(nc3ccccc3c2=O)S1 (stereo not given)	inactive: 3.21%
Cc1nc2ccc3ccccc3c2s1.O=[N+]([O-])c1cc([N+](=O)[O-])c(O)c([N+](=O)[O-])c1	inactive: 19%
O=[N+]([O-])c1cc([N+](=O)[O-])c(-c2cnn(-c3ccccc3)c2)c([N+](=O)[O-])c1	inactive: 0.0881%
COc1ccccc1CNC(=O)COC(=O)C(O)(c1ccccc1)c1ccccc1	inactive: 1.47%
Clc1n[nH]nc1-c1nn[nH][15n]1	inactive: 2.14%
CC(C)(C)C(=O)NC(Sc1ncccn1)C(Cl)(Cl)Cl (stereo not given)	inactive: 0.49%
O=P1(Nc2ccccn2)COc2ccccc2OC1	inactive: 0.593%
O=[N+]([O-])c1cc([N+](=O)[O-])c(-n2nnc3ccccc32)c([N+](=O)[O-])c1	inactive: 11.5%
CN(CCCl)Cc1cc(Cl)c(NC2=NCCN2)c(Cl)c1	inactive: 6.24%
CCOP(=O)(Nc1ccc(C)cn1)OCC	inactive: -5.25%
